# scFv variants of Ab-14 (light chain) against a SARS-CoV-2 spike peptide

The measurements come from Engelhart et al. 2022 (doi:10.1038/s41597-022-01779-4) through the FLAb antibody collection.

Target: peptide PDVDLGDISGINAS, taken from heptad repeat 2 (HR2) of SARS-CoV-2 spike.

Parent scFv Ab-14: VH joined to VL by three GGGGS repeats. Changes lie in the light chain CDRs alone.
VH: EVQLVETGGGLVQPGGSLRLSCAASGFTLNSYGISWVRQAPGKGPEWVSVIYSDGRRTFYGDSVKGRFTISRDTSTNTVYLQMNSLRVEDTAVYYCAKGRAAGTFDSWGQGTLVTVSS
VL: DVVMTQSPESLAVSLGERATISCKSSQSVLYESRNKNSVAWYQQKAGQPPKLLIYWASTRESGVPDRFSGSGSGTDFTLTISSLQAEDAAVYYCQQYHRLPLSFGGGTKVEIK

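Phage display of a naive human antibody library on the peptide gave the parent. Library AAYL50 holds single substitutions and randomly drawn double and triple substitutions in the CDRs. Affinity was read by AlphaSeq, a pooled yeast mating assay with surface-displayed partners. The frequency of each diploid, read from paired DNA barcodes, reflects how well the two displayed proteins bind. A regression on co-assayed BCL2-family reference pairs converts the normalised counts of each replicate to an apparent Kd. Each pool was mated in three replicate cultures.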

The parent's light chain CDRs are KSSQSVLYESRNKNSVA, WASTRES, QQYHRLPLS; each variant's own CDRs replace them letter for letter.
Numbers give log10(Kd / nM), so 0 is 1 nM and 3 is 1 µM. Smaller is tighter.
"n.d." marks a missing value. The strain was present, yet no cells mated with the target were sequenced in that replicate, which points to weak or no binding.
Three control strains display no target. For library AAYL50, 18% of the pairings with them gave a signal, with a median of 4.19 and one signal in twenty below 2.99, so weak values seen in few replicates may be background. The control count says in how many pairings with the empty strains this scFv gave a signal, with their mean in brackets.

CDR-L1,CDR-L2,CDR-L3,"log10 Kd, replicates",control signals
KSSQSVLYESPNKISVA,WASTRES,DQYHRLPLS,n.d. n.d. n.d.,0/9
KSSQSVLYESRNLNSVP,WASCRES,QQYHRLPLS,2.76 2.50 2.78,8/9 (4.44)
KSSQSVLYESRNKNSVA,WVRTRES,QQYHRLPFS,3.67 n.d. 2.46,0/9
KSEQSVLYESTNKNNVA,WASTRES,QQYHRLPLS,n.d. n.d. n.d.,0/9
KSSQSVLYESRNKNSVA,WASTREE,LQYQRLPLS,n.d. n.d. n.d.,0/9
KSSQSVLYESRNKNSVA,VASTREH,QQYHRLPLE,n.d. n.d. n.d.,0/9
KSSQSYLYEKRNKNSVA,WAETRES,QQYHRLPLS,0.92 0.86 0.83,4/9 (5.02)
KSWQSVLYASRNKNSVA,WASTRES,QQYHRLPYS,n.d. n.d. n.d.,0/9
KSSQSVLYESRNCNSVA,WASTRES,QQYHRLWLA,0.92 0.97 0.95,7/9 (4.71)
KSSQSVIYESRNKNSVA,WASTRES,QQYHRPPLL,1.66 1.69 1.74,6/9 (4.45)
FSSQSVLYRSENKNSVA,WASTRES,QQYHRLPLS,1.60 1.64 1.75,3/9 (4.02)
KSSQSVLYESRNKNQVA,WASKRES,PQYHRLPLS,n.d. n.d. n.d.,0/9
KSSQSVLYESRNKRSVA,CASTRES,QQYHRLPLS,1.25 1.45 1.39,1/9 (2.96)
KSSQSVLYWSRPKNSVA,WASWRES,QQYHRLPLS,5.66 n.d. n.d.,0/9
KSSQSVLYESRNKNFVA,RASTRES,QQYHRLPLY,1.88 2.00 2.01,4/9 (4.53)
KSSQSVLYESRMKNSVA,WASTRLS,QQYHRLQLS,1.04 1.35 1.38,0/9
MSSQSVLYESRNKNSVA,WASTRES,QQYHRWPLV,1.09 1.20 1.28,1/9 (3.99)
KMSQSVGYESRNKNSVA,WARTRES,QQYHRLPLS,0.33 0.67 0.45,1/9 (5.27)
KSVQIVLYESRNKNSVA,WASTRES,QQYWRLPLS,3.48 n.d. n.d.,0/9
KSSQSVLYESRNKNSVA,WASTREN,QQYHALPNS,n.d. n.d. n.d.,1/9 (3.26)
KSSQSVLYEARNKNSVA,WASTYES,QQYHYLPLS,6.12 n.d. 4.30,3/9 (4.09)
KSPQSVLYESRNKNSVA,WRSTRES,QNYHRLPLS,n.d. 3.68 n.d.,1/9 (3.62)
SSSQSVLYESRNKNSVA,WASTRES,WQYHRLELS,n.d. n.d. n.d.,1/9 (2.78)
KSSQSVMYESPNKNHVA,WASTRES,QQYHRLPLS,1.79 1.80 2.29,4/9 (4.29)
KSDQSVLYESSNKNSVA,WASTRES,QQYHRLPLL,0.91 0.96 1.08,3/9 (4.47)
KSMQSVLYESKNKNSVA,FASTRES,QQYHRLPLS,n.d. n.d. 2.00,0/9
KSSQSVLYEWRNKNSVA,WASTRRS,QQYHRLPLL,n.d. n.d. n.d.,0/9
PSSQSVLYESRNKNSVV,WASTRES,QQYHILPLS,n.d. n.d. n.d.,1/9 (3.68)
KSSYSVLYESRNKNSVA,GASTRES,QQYHGLPLS,-0.06 0.29 0.07,3/9 (4.84)
KWSQSVLYESRNKNSVA,WASTRES,QTYIRLPLS,0.66 0.81 0.67,3/9 (4.15)
KSDQSVLYESRNKNHVA,WASTREW,QQYHRLPLS,1.97 2.14 2.09,2/9 (5.63)
SSSQSVLFESRNKNSVA,WASCRES,QQYHRLPLS,1.64 1.91 2.57,0/9
KSSQSVLYESRNKKSVA,WASTRTS,QQYHRLPYS,n.d. n.d. n.d.,2/9 (3.98)
KSSYSVLKESRNKNSVA,WASTRES,HQYHRLPLS,4.95 4.06 n.d.,7/9 (4.77)
KSEQSVLYESRNKNSVA,WASTQEI,QQYHRLPLS,n.d. 3.38 n.d.,0/9
KSSQSVLYESRNKWSVA,WDSTRES,QQYHRLSLS,n.d. n.d. n.d.,0/9
SSSQSVLYESRNKNSVA,WAETRET,QQYHRLPLS,0.65 1.62 1.15,0/9
KSSQSVLYESRNKNSVA,RAQTRES,QQYHRLPLS,1.26 1.45 1.23,5/9 (4.83)
KSGQSVLYESRNKRSVA,WASTRES,QQYHRLTLS,n.d. n.d. n.d.,4/9 (4.71)
KSCQSVLYHSRNKNSVA,WASTRES,QYYHRLPLS,n.d. 4.51 n.d.,2/9 (2.82)
WSSQSVLYESRMKNSVA,WASTRES,QQYHRLPLL,n.d. 4.57 4.27,9/9 (4.56)
KSSQSVLYESRNKNSVA,WASTREQ,QQYHRLPVI,2.72 2.28 2.83,3/9 (4.12)
KSSQCVLAESRNKNSVA,WASFRES,QQYHRLPLS,2.62 2.34 2.64,5/9 (4.32)
KESQSVLYESRNKNSVA,WAETREP,QQYHRLPLS,3.20 2.95 2.96,2/9 (3.94)
KSSQSVLYESRNKNSVA,YASTRES,IQYHELPLS,n.d. n.d. n.d.,2/9 (3.58)

Excerpt, the first 4 entries:

| CDR-L1 | CDR-L2 | CDR-L3 | log10 Kd, replicates | control signals |
|---|---|---|---|---|
| KSSQSVLYESPNKISVA | WASTRES | DQYHRLPLS | n.d. n.d. n.d. | 0/9 |
| KSSQSVLYESRNLNSVP | WASCRES | QQYHRLPLS | 2.76 2.50 2.78 | 8/9 (4.44) |
| KSSQSVLYESRNKNSVA | WVRTRES | QQYHRLPFS | 3.67 n.d. 2.46 | 0/9 |
| KSEQSVLYESTNKNNVA | WASTRES | QQYHRLPLS | n.d. n.d. n.d. | 0/9 |

In this assay the parent's reference entry averaged 0.65; its copy inside this library read 1.68.